Protein sequences, listed by entry. Tags and fused reporters are not part of them. Lines headed by an entry give the natural chain unless they say otherwise; changes in a name come on top.
UniProt Q92731: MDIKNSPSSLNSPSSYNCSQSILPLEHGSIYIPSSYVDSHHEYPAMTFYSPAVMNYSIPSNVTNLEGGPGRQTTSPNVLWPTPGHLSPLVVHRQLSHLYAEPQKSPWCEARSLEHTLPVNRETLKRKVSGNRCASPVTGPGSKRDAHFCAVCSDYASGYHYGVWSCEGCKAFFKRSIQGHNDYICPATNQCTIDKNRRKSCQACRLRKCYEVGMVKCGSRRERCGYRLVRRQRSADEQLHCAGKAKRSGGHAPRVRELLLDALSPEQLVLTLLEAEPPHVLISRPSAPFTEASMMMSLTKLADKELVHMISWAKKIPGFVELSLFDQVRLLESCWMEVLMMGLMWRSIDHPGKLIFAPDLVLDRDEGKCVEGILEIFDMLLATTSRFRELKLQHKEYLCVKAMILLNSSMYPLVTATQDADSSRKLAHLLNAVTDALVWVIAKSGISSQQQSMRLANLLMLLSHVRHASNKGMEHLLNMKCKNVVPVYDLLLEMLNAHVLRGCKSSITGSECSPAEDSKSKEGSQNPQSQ
UniProt P03372: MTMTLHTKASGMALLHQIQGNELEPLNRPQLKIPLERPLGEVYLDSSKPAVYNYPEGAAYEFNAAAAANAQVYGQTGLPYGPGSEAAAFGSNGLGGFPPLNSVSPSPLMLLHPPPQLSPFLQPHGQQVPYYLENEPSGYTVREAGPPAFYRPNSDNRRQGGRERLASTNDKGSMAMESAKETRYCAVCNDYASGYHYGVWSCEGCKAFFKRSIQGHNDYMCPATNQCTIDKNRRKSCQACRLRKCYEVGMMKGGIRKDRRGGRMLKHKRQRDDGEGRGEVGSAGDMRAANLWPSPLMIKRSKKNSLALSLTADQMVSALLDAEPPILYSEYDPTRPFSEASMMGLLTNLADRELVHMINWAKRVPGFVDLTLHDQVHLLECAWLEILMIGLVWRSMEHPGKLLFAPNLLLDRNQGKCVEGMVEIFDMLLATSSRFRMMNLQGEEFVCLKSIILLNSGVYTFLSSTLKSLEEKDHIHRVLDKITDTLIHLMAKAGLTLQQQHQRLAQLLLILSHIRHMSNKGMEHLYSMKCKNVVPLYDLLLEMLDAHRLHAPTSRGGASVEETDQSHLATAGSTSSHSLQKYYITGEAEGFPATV

According to ChEMBL document CHEMBL1136521, “Tetrahydroquinoline-based selective estrogen receptor modulators (SERMs)” (Bioorg Med Chem Lett, 2003):

Molecular target: Estrogen receptor (Homo sapiens, UniProt Q92731+P03372)

IC50: 620 nM
SMILES: O=C(c1ccc(OCCN2CCCCC2)cc1)N1c2ccc(O)cc2CCC1c1ccccc1 (stereo unspecified)
